# Measured values from US20240115500A1, “POLYMERIC MICELLE COMPLEXES OF MRNA OR ZWITTERIONIC AGENTS, AND FORMULATIONS AND USES THEREOF” (Aravasc Inc., priority 2020, published 2024).
# Test: Agarose gel electrophoresis of protein + PBC formulations at defined w/w ratios (Example 2)
# Settings: polymer:protein ratio 15:1; FIG. 2A-2D
substance,measurement,value
Interleukin-2: interleukin protein tested for complexation with PBC,complexation with the polymer (agarose gel),significantly complex
